We go through one molecule from paper PMC10219297.

Amino acid sequences for entries named in this document (tags omitted). Residues count along the entry.
UniProt P40763, 2-770 limits assumed: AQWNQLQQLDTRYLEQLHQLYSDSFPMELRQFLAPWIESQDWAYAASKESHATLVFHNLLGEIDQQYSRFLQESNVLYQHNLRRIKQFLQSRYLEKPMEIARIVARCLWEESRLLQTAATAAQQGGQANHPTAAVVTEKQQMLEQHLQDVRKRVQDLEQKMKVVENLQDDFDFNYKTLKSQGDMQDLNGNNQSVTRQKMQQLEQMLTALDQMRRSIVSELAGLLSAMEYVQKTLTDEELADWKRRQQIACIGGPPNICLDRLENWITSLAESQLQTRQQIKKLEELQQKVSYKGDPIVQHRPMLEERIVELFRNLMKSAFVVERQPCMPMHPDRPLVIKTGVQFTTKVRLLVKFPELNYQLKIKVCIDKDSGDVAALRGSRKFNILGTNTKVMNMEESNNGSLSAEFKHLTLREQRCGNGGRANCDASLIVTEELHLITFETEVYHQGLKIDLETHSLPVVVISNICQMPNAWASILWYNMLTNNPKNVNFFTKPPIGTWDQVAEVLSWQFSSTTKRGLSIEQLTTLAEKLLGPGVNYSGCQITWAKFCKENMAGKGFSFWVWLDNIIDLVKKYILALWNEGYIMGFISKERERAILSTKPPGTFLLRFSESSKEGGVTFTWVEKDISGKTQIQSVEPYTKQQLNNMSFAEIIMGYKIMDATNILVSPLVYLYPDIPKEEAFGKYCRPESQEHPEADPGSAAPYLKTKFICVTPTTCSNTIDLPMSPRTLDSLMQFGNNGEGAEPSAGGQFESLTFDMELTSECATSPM

The target of the assay is STAT3 (Homo sapiens, UniProt P40763). The assay can be described thus: SPR (purified STAT3 immobilized on CM5 chip); supported by CETSA in A549 cells. The following applies: tested form: CF3COOH salt.

The Kd is the constant that tells how readily two partners part at equilibrium.

With `Brc1cc(-c2nccc3c2ncn3CCCCCCN2CCCCC2)[nH]c1Br`, the equilibrium dissociation constant (Kd) is 9.01 µM.
